Where a name gives a salt, the structure may show the parent alone.
Columns and labels:
[1] = target: Serotonin 5HT1A receptor (Human) (Homo sapiens, UniProt P08908); assay: [3H]-8-Hydreoxy-DPAT binding assay; conditions: Human recombinant
[2] = target: Neurokinin NK2 receptor (Human) (Homo sapiens, UniProt P21452); assay: [3H]-SR 48968 binding assay; conditions: Human recombinant
[3] = target: Neurotensin NT1 receptor (Human) (Homo sapiens, UniProt P30989); assay: [125I]-Neurotensin binding assay; conditions: Human recombinant
[4] = target: Opiate ORL1 receptor (Human) (Homo sapiens, UniProt P41146); assay: [3H]-Nociceptin binding assay; conditions: Human recombinant
VIP 1 receptor (Human) = VIP 1 receptor (Human) (Homo sapiens, UniProt P32241); assay: [125I]-Vasoactive Intestinal Polypeptide binding assay; conditions: Human receptor (Non-recombinant)

Chains of the proteins cited; added tags and fusions are not shown. Lines headed by an entry give the natural chain unless they say otherwise; changes in a name come on top. Residues count along the entry.
UniProt P08908, whole entry: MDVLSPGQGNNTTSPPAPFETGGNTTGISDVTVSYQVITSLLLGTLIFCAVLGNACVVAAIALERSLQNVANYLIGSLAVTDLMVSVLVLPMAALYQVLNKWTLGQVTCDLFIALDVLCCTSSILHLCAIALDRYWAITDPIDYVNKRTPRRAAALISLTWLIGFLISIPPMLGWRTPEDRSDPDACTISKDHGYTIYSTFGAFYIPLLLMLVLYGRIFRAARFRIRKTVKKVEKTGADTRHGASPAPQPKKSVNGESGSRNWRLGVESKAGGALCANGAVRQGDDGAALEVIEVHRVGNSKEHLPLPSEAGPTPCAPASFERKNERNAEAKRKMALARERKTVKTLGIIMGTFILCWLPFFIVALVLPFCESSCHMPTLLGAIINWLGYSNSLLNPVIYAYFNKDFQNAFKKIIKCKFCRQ
UniProt P21452, whole entry: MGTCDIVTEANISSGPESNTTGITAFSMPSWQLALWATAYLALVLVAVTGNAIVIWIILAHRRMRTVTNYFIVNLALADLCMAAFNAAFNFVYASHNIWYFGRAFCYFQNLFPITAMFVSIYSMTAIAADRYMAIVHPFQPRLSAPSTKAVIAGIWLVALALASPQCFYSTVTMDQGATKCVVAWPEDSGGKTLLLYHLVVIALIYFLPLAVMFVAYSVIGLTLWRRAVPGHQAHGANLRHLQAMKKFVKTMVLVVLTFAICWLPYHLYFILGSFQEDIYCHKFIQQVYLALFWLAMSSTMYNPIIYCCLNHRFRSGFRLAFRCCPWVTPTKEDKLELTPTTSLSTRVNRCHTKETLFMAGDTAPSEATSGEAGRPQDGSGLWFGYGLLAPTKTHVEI
UniProt P30989, whole entry: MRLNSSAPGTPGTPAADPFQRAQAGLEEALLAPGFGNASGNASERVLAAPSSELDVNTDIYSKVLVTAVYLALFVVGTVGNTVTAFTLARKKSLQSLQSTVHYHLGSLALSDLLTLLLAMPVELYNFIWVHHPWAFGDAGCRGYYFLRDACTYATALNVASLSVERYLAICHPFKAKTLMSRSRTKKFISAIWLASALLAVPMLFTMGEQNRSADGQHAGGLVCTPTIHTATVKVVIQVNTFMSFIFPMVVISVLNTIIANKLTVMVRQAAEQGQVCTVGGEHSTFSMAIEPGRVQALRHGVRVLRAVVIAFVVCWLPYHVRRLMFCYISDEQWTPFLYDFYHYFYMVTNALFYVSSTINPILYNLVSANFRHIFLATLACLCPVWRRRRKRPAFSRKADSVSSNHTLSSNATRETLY
UniProt P41146: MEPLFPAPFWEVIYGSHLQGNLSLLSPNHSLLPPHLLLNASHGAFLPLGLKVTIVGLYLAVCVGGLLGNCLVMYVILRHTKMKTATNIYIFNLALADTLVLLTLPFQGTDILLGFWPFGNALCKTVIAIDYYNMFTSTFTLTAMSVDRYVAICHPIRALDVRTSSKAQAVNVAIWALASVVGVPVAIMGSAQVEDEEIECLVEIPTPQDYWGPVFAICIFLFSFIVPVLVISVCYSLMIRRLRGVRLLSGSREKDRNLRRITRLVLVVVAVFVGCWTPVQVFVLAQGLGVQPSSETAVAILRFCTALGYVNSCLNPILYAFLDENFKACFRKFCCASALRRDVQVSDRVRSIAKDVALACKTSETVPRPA
UniProt P32241, 31-457: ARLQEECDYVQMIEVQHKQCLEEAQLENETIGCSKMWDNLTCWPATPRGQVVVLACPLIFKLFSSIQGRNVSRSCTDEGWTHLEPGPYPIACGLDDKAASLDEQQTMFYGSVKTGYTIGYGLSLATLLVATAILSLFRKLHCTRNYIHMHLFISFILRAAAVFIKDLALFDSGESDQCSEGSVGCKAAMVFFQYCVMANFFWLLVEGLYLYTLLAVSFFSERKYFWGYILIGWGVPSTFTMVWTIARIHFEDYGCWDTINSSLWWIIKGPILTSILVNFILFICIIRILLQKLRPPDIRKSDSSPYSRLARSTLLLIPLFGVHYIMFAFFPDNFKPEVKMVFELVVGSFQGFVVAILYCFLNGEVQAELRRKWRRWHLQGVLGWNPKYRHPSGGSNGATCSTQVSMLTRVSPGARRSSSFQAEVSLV

Compound: NCCc1c[nH]c2ccc(O)cc12 [Serotonin hydrochloride]
- Inhibition by a positive substance (%) [1]: 99.67%

Compound: Neurokinin A
- Inhibition by a positive substance (%) [2]: 99.61%

Compound: Neurotensin
- Inhibition by a positive substance (%) [3]: 99.56%

Compound: Orphanin FQ
- Inhibition by a positive substance (%) [4]: 100%

Compound: Vasoactive Intestinal Peptide human, porcine, rat
- Inhibition by a positive substance (%) (VIP 1 receptor (Human)): 100%
